Molecules are shown by their SMILES.

By UniProt entry, the sequences of proteins in these tests, tags left out. Residues count along the entry.
UniProt P27815, 1-825 isoform P27815-6: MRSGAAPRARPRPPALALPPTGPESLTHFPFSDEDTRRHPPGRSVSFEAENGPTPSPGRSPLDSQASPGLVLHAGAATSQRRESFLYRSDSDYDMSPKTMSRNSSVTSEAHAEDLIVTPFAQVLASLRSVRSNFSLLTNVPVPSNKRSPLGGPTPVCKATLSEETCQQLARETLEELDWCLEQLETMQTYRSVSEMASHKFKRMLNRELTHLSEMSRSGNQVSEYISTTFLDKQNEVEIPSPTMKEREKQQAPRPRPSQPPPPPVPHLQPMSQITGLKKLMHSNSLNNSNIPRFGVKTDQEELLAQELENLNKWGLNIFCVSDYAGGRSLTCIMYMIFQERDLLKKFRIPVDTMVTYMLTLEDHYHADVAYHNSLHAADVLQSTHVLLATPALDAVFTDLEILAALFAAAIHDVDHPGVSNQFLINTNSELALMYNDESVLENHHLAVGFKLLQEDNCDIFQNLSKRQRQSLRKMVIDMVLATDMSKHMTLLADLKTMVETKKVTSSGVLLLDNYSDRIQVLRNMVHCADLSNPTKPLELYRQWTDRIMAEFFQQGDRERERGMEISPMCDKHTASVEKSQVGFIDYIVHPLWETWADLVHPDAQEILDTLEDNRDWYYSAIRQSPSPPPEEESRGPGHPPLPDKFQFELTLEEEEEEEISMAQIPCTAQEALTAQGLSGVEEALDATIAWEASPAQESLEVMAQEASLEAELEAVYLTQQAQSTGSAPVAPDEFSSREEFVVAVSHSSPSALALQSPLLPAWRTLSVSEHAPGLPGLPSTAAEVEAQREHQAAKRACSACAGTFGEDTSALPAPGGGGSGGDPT
UniProt Q08493, 107-712: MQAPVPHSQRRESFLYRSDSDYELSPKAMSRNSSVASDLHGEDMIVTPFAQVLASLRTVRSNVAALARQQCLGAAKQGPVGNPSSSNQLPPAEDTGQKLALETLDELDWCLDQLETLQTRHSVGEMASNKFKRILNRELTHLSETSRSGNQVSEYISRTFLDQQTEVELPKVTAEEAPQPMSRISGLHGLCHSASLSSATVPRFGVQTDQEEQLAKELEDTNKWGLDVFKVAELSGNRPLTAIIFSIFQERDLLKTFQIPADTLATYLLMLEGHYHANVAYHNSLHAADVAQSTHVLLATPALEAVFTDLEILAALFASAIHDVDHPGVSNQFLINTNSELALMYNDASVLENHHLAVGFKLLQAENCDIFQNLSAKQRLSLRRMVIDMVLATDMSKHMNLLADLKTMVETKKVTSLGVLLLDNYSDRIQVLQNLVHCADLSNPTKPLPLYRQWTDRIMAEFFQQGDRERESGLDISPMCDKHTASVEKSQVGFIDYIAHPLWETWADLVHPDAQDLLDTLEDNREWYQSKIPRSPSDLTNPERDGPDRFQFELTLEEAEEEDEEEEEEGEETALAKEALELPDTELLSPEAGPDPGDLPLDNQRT

Common to all, as to type: biochemical
One assay concerns the target PDE4A4 (Homo sapiens, UniProt P27815).
The target in a further assay is PDE4A10 (Homo sapiens, UniProt P27815).
The target of the next assay is PDE4C2 (Homo sapiens, UniProt Q08493). As for the experimental part:
Enzyme Preparations: Partially purified human recombinant phosphodiesterases (PDEs) were obtained by cloning cDNA and expressing in S. frugiperda insect cells using a baculovirus expression system. Cells are harvested from culture by centrifuging at 400×g for 5 minutes. Cell pellet is resuspended in 20 ml of RIPA Buffer (150 mM NaCl, 10 mM Tris, 0.1% NP-40, pH8.3), 4 ml/200 ml of culture, plus protease inhibitors (100 μl/10 ml) and incubated on ice for 10-20 minutes then spun at 3500×g for 10 minutes at 4° C. Supernatant is kept and the pellet thrown away.
Tritium-labelled cyclic AMP is hydrolysed to 5′-AMP o by PDE. The 5′-AMP is then further hydrolysed to adenosine by nucleotidase in snake venom. An anion-exchange resin binds all charged nucleotides and leaves [^3H]adenosine as the only labelled compound to be counted by liquid scintillation.
50 μl of diluted PDE enzyme was incubated with 50 μl of [^3H]-cAMP (specific activity 25 Ci/mmol) and 11 μl of 50% DMSO (or compound dilution) for 20 minutes at 30° C. […] 5 μl of supernatant was removed and added to 200 μl of MicroScint-20 in white plates (Greiner 96 well Optiplate) and shaken for 30 minutes before reading on Perkin Elmer TopCount Scintillation Counter. […] values were calculated using GraphPad Prism software (version 8).

For the compound `CCOc1cc([C@@H](CS(C)(=O)=O)N2C(=O)c3cccc(NC(C)=O)c3C2=O)ccc1OC` [Apremilast, reference compound], the figures for the concentration for half-maximal inhibition (IC50) against PDE4A4, at PDE4A10 and against PDE4C2 were 42.4 nM, 342 nM and 295 nM, respectively.
